Results published in patent US20170056496A1 (Sanofi, priority 2008, published 2017).

System: human Burkitt's lymphoma Namalwa
Experiment: Antitumor efficacy against advanced human Burkitt's lymphoma Namalwa implanted in SCID mice
[1] = CPA alone, IV day 11, 15, 68.2 mg/kg/inj (total 136.4)
[2] = CPA alone, IV day 11, 15, 110.0 mg/kg/inj (total 220.0)
[3] = hu38SB19 alone, IV, 40.0 mg/kg/inj (total 120.0), twice a week day 11-18

Row | Molecule | Comments: antitumor activity rating [1] | T-C in days (1000 mg), tumor growth delay [1] [days] | log10 cell kill gross [1] | log10 cell kill net [1] | Comments: antitumor activity rating [2] | T-C in days (1000 mg), tumor growth delay [2] [days] | log10 cell kill gross [2] | log10 cell kill net [2] | T-C in days (1000 mg), tumor growth delay (CPA alone, IV day 11, 15, […] (total 354.8)) [days] | Comments: antitumor activity rating (hu38SB19 alone, IV, 40.0 mg/kg/inj (total 120.0), highest dose tested) | T-C in days (1000 mg), tumor growth delay [3] [days] | log10 cell kill gross [3] | log10 cell kill net [3]
1 | O=P1(N(CCCl)CCCl)NCCCO1 (stereo not shown) [cyclophosphamide] | Active | 9.8 | 1.6 | 0.8 | Highly active | 19.8 | 3.1 | 2.3 | 30.1 | – | – | – | –
2 | hu38SB19: humanized anti-CD38 monoclonal antibody 38SB19; VH SEQ ID NO: 66, VL chosen from SEQ ID NOS: 62 and 64 | – | – | – | – | – | – | – | – | – | not active | 2.5 | 0.4 | −0.9
